Ab-91 heavy chain CDR variants: yeast mating affinities

Source: Engelhart et al. 2022 (doi:10.1038/s41597-022-01779-4), MIT Lincoln Laboratory and A-Alpha Bio; data file from the FLAb repository.

Target peptide (SARS-CoV-2 spike, HR2 region): PDVDLGDISGINAS

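Phage display of a naive human antibody library on the peptide gave the parent. Library AAYL51 holds single substitutions and randomly drawn double and triple substitutions in the CDRs. Affinity was read by AlphaSeq, a pooled yeast mating assay with surface-displayed partners. After mating in shaken culture at 30 °C for 16 h, diploids were selected and their barcode pairs sequenced. Read counts were normalised to the haploid input and turned into Kd by a linear fit to BCL2-family pairs of known affinity, for each replicate. Each pool was mated in three replicate cultures.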

Parent scFv Ab-91: VL joined to VH by three GGGGS repeats. Changes lie in the heavy chain CDRs alone.
VL: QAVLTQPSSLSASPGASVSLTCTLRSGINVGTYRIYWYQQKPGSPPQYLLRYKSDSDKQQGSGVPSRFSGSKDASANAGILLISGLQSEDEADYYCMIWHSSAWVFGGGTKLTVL
VH: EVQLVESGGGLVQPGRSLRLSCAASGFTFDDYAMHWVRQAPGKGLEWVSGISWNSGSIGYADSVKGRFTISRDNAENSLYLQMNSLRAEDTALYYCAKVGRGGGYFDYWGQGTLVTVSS

The parent's heavy chain CDRs are GFTFDDYAMH, GISWNSGSIGYADSVK, VGRGGGYFDY; each variant's own CDRs replace them letter for letter. Numbers give log10(Kd / nM), so 0 is 1 nM and 3 is 1 µM. Smaller is tighter. A pair that was not seen in that replicate is written "nd"; this usually means weak binding, but a binder can also be missed.

The variant GFTFDDVAIH / QISWNSGSIGYADSVK / VGRGGGYFDY showed 4.19, 4.50, nd (controls 0 of 9).
The variant KFTFDDYAMH / GISWNSGSIGYADSVK / VGRGGFYFDF showed 4.51, 6.03, 5.34 (controls 6 of 9).
The variant GFTFDDYAMH / GISWNSGSIGYAMSVK / VGRGGGHFDT showed nd, nd, nd (controls 0 of 9).
The variant GFTFDDPRMH / GISWNSGSIGYADSVK / VGRGGGYFNY showed 5.98, nd, nd (controls 2 of 9).
The variant GFTFDDYAMV / GISWNSGSIGDADSVK / VGRGGGHFDY showed 4.14, nd, nd (controls 2 of 9).
The variant GFTFDDQAMH / GIPWNSGSIGYVDSVK / VGRGGGYFDY showed nd, nd, nd (controls 1 of 9).
The variant GFTFDHYAMH / GISWLSGSIGYACSVK / VGRGGGYFDY showed nd, 5.22, nd (controls 1 of 9).
The variant GFTFDDYAMC / GIWWNSGSIGYADSVK / VGRGGGYTDY showed nd, nd, nd (controls 2 of 9).
The variant GFTFDDRAMH / GISWNSSSRGYADSVK / VGRGGGYFDY showed 5.12, nd, 4.18 (controls 5 of 9).
The variant GFYQDDYAMH / GISWNSGSIGYAPSVK / VGRGGGYFDY showed 5.15, 5.88, nd (controls 4 of 9).
The variant CFTFIDYAMW / GISWNSGSIGYADSVK / VGRGGGYFDY showed nd, 3.61, 4.59 (controls 3 of 9).
The variant GFTFDDYAMH / GISWNSGSIGYADYVK / VGRGGGYLKY showed 1.25, 1.20, 0.65 (controls 4 of 9).
The variant GFFFDDYAMH / GISWNSGDSGYADSVK / VGRGGGYFDY showed 1.68, 1.16, 0.78 (controls 0 of 9).
The variant GFTFDDNAMH / GISWNSGSIGYADSVK / VGCGMGYFDY showed 1.01, 0.94, 0.38 (controls 6 of 9).
The variant GFTFDDYAMH / GISWNSGSCGYAKSVK / VGRGGGYFDY showed 6.02, 5.24, nd (controls 5 of 9).
The variant GFTFRDYAMH / GISWNSGSIGYADHVK / VGRGGGRFDY showed 4.85, 4.59, 4.78 (controls 5 of 9).
The variant GFTFDDYARH / GIAWNSGFIGYADSVK / VGRGGGYFDY showed nd, 3.66, nd (controls 0 of 9).
The variant GFTFDYYAMH / GIVWNSGSIGWADSVK / VGRGGGYFDY showed nd, nd, nd (controls 1 of 9).
The variant GFIFDDYAMH / GISWNSGSMGYADSVK / QGRGGGYFDY showed nd, nd, nd (controls 0 of 9).
The variant GFTFDDYAMH / GISWNSGSIGYADSIK / VGRCGGYFDK showed 3.33, 3.09, 4.41 (controls 6 of 9).
The variant GFTFDDYAMH / GISWNSKSIGYADSVK / VGRGGNYFDY showed 4.79, nd, nd (controls 5 of 9).
The variant GFTSDDYAMH / GISWNSSHIGYADSVK / VGRGGGYFDY showed nd, nd, nd (controls 1 of 9).
The variant GFTFDDYAMH / GISWNSGSIGYAWSIK / VGRGGGYFDC showed nd, nd, nd (controls 0 of 9).
The variant GFTFDDYAMH / GIRWNSGSIGYAKSVK / VDRGGGYFDY showed nd, nd, nd (controls 4 of 9).
The variant GFTFDGYAMH / GISWNSGSIGYADSVK / VGMGGGYADY showed nd, nd, nd (controls 3 of 9).
The variant GFTFDDLAMH / GISWNSGSIGLDDSVK / VGRGGGYFDY showed 4.07, 5.24, 4.87 (controls 7 of 9).
The variant NFTFDDYAMH / GISWNSLSIGYHDSVK / VGRGGGYFDY showed 2.71, 3.50, 4.54 (controls 2 of 9).
The variant GFTFDDYAMH / GISWNSGSIGYAMSCK / VGRGGGYFDY showed nd, nd, nd (controls 0 of 9).
The variant GFTFDDYAMH / GISWFMGSIGYADSVK / VGRFGGYFDY showed nd, nd, nd (controls 1 of 9).
The variant CFTFDDYAMH / GISWNSFSIGYADSVK / VGRCGGYFDY showed nd, nd, nd (controls 0 of 9).
The variant GFTFDPYAMH / GISWNSGSKGYADSVK / VGIGGGYFDY showed nd, nd, nd (controls 0 of 9).
The variant GFTFDDYAMH / DVSWNSGNIGYADSVK / VGRGGGYFDY showed 4.26, nd, 4.40 (controls 1 of 9).
The variant GFTFDDHAMH / GISWISHSIGYADSVK / VGRGGGYFDY showed nd, nd, nd (controls 1 of 9).
The variant GFTFDKIAMH / GISWNSGSDGYADSVK / VGRGGGYFDY showed 2.19, 2.47, 1.59 (controls 1 of 9).
The variant GFTFDDYAMH / QISWFSGSIGYADSVK / VLRGGGYFDY showed nd, nd, nd (controls 0 of 9).
The variant GFTFDDYAMH / GISWNSGSGGHADSVK / VGRGGGYFKY showed nd, 4.23, nd (controls 1 of 9).
The variant GFTFDHYWMH / GISWNSGSIGYADSVK / VGRGGGYFDY showed 6.50, 5.44, 6.11 (controls 5 of 9).
The variant GFTFDDYAMH / GISSNSGSIGCADSVK / VGRGGGYFDG showed nd, nd, nd (controls 0 of 9).
The variant GFTFDDYAMH / GISWNSGVIGYADSVK / VGRGGGYSDY showed nd, nd, nd (controls 2 of 9).
The variant GFTFDDYAMH / GISINSGSEDYADSVK / VGRGGGYFDY showed 4.53, 5.40, nd (controls 4 of 9).
The variant GFQFDDYAMH / GISWNSGSIGYADLVK / VGRGGGYFDY showed 3.24, nd, nd (controls 2 of 9).

The opening 5 entries, copied out:

{"CDR-H1": "GFTFDDVAIH", "CDR-H2": "QISWNSGSIGYADSVK", "CDR-H3": "VGRGGGYFDY", "replicates, log10 nM": "4.19, 4.50, nd", "empty controls": "0 of 9"}
{"CDR-H1": "KFTFDDYAMH", "CDR-H2": "GISWNSGSIGYADSVK", "CDR-H3": "VGRGGFYFDF", "replicates, log10 nM": "4.51, 6.03, 5.34", "empty controls": "6 of 9"}
{"CDR-H1": "GFTFDDYAMH", "CDR-H2": "GISWNSGSIGYAMSVK", "CDR-H3": "VGRGGGHFDT", "replicates, log10 nM": "nd, nd, nd", "empty controls": "0 of 9"}
{"CDR-H1": "GFTFDDPRMH", "CDR-H2": "GISWNSGSIGYADSVK", "CDR-H3": "VGRGGGYFNY", "replicates, log10 nM": "5.98, nd, nd", "empty controls": "2 of 9"}
{"CDR-H1": "GFTFDDYAMV", "CDR-H2": "GISWNSGSIGDADSVK", "CDR-H3": "VGRGGGHFDY", "replicates, log10 nM": "4.14, nd, nd", "empty controls": "2 of 9"}

Nonspecific signal, from three strains lacking the peptide, appeared in 21% of pairings of library AAYL51, centred on 4.54 (5% of these signals below 3.26); values are not corrected for it. Also given: how often the same scFv was detected with the empty control strains.